Measured affinities in a library of Ab-14 heavy chain variants

Reference: Engelhart et al. 2022, doi:10.1038/s41597-022-01779-4. File: FLAb, binding data.

All variants were tested on one target, the spike HR2 peptide PDVDLGDISGINAS (SARS-CoV-2).

Parent scFv Ab-14: VH joined to VL by the linker GGGGSGGGGSGGGGS. Changes lie in the heavy chain CDRs alone.
VH: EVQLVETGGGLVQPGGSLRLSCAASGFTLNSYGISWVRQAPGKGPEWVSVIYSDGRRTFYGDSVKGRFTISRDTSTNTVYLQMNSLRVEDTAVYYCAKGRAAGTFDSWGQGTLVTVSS
VL: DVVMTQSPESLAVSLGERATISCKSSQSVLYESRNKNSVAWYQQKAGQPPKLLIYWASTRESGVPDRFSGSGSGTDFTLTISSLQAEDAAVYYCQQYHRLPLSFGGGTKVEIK

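The starting antibody came from a phage panning campaign against this peptide. AAYL49 was designed without a model: most single CDR substitutions and a random sample of double and triple ones. AlphaSeq pools MATa yeast showing the antibodies with MATalpha yeast showing the peptide. After mating in shaken culture at 30 °C for 16 h, diploids were selected and their barcode pairs sequenced. Read counts were normalised to the haploid input and turned into Kd by a linear fit to BCL2-family pairs of known affinity, for each replicate. There are three technical replicates.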

The parent's heavy chain CDRs are GFTLNSYGIS, VIYSDGRRTFYGDSVK, GRAAGTFDS; each variant's own CDRs replace them letter for letter. The read-out is the apparent dissociation constant on a log10 scale (nM): the lower, the stronger. Replicates are averaged; those with no signal do not enter the mean. Where no diploid with the target was found in that replicate, the entry reads "ND": below detection, most likely a poor binder, though not proof of it. Empty control strains, which show no peptide, gave a signal in 15% of pairings with library AAYL49; the median was 4.06 and 95% of these signals were weaker than 2.83. No background was subtracted. Also given: how often the same scFv was detected with the empty control strains.

For GFTFNSYGIS / VIYSDGRRTFYGDSAK / GRAAGTFGS, the assay gave 2.82, 2.48, 2.77 (mean 2.69; controls 1 of 9).
For AHTLNSYGIS / VIYSDPRRTFYGDSVK / GRAAGTFDS, the assay gave ND, ND, ND (controls 1 of 9).
For GFTSNSYGIS / VIYSDGRMTFYGDSVK / GRAAMTFDS, the assay gave ND, ND, ND (controls 1 of 9).
For GFWLNSYGIS / VIYSDGRRTFYGDWVK / GRAAGTYDS, the assay gave ND, ND, 4.97 (controls 1 of 9).
For CFTLNSYGIS / VIYSDGRRTFYGLSVK / GRAAGTFRS, the assay gave ND, ND, ND (controls 0 of 9).
For GCTLNSYGIS / VIYSDGRRTFYGDWVK / GRAAGYFDS, the assay gave ND, ND, 4.31 (controls 2 of 9).
For NFTLNSYGIS / VISSGGRRTFYGDSVK / GRAAGTFDS, the assay gave 5.66, 4.31, 4.37 (mean 4.78; controls 5 of 9).
For GSTLNSYGIS / VIYSDGNRTFYGDSVK / GRCAGTFDS, the assay gave ND, ND, ND (controls 0 of 9).
For GFTQNSYGIS / VIYSDGRRTFYGDSVK / WRAAGTFLS, the assay gave ND, ND, ND (controls 0 of 9).
For GFTLNSYGIS / VIYSDSYRPFYGDSVK / GRAAGTFDS, the assay gave ND, ND, ND (controls 1 of 9).
For GFTLNSYGIS / VIYSDGRRTFLGDSVK / GRAAGCKDS, the assay gave ND, ND, ND (controls 0 of 9).
For GFTLNSYGIS / VIYSDGRRTFYGDSVK / YVAAGTFDS, the assay gave ND, ND, ND (controls 0 of 9).
For GFTLNSHGIA / VIYSDGRRTFYGDSVE / GRAAGTFDS, the assay gave 4.10, 4.17, 6.40 (mean 4.89; controls 4 of 9).
For GQYENSYGIS / VIYSDGRRTFYGDSVK / GRAAGTFDS, the assay gave 4.90, 4.08, ND (mean 4.49; controls 1 of 9).
For GFTLWSYGIS / VIYSDGNRTFYGDSVR / GRAAGTFDS, the assay gave 1.96, 1.90, 1.79 (mean 1.88; controls 9 of 9).
For GFTLNSYGIS / EIYSDGRRTFLGDSVK / GIAAGTFDS, the assay gave ND, ND, ND (controls 0 of 9).
For GFTLNSYGIS / VIYSDGRRTFYGDSVK / GRAADVFDS, the assay gave ND, ND, ND (controls 0 of 9).
For GDTLNSYGIS / VIYSDGRRTFYGDSVK / GRAAGTFDS, the assay gave 0.54, 0.78, 0.74 (mean 0.69; controls 0 of 9).
For GFTLNSYGIS / VIWSDGRHRFYGDSVK / GRAAGTFDS, the assay gave 3.32, 3.14, ND (mean 3.23; controls 3 of 9).
For GFTLLSYGIS / VIYSDGRRTYYGDSVC / GRAAGTFDS, the assay gave ND, 2.87, ND (controls 0 of 9).
For GFTGNSYGIS / VCYSDGRRTFWGDSVK / GRAAGTFDS, the assay gave 4.78, ND, ND (controls 3 of 9).
For GFTLNGYGII / IIYSDGRRTFYGDSVK / GRAAGTFDS, the assay gave 4.75, 3.26, ND (mean 4.01; controls 2 of 9).
For GFTLNSYGIS / VIYWDGRPTFYGCSVK / GRAAGTFDS, the assay gave ND, ND, ND (controls 0 of 9).
For GFTLNSYGIS / VIYSDGQRTFYGHSVK / GRAAGDFDS, the assay gave ND, 3.61, 4.44 (mean 4.02; controls 2 of 9).
For GFTLNSYGIS / VIYVDGRRTFYGDYVK / MRAAGTFDS, the assay gave ND, ND, ND (controls 0 of 9).
For GFTLNSYGIS / VIYSDPRRTFYGDSVK / GRAAGTFDS, the assay gave 4.51, ND, 5.31 (mean 4.91; controls 1 of 9).
For GFTLNSYGIT / VIGSDGRRTFNGDSVK / GRAAGTFDS, the assay gave ND, 3.46, ND (controls 1 of 9).
For GFTLNSYGIS / DMYSDGRRTFYGDSVK / GQAAGTFDS, the assay gave ND, ND, ND (controls 0 of 9).
For GFTLTSYGIS / VIYSDGRRTFMGDSVK / GRAAGTIDS, the assay gave 2.60, 4.24, 3.86 (mean 3.57; controls 4 of 9).
For GFTLNSYGIS / VIYSDTRRTFYGDSVK / GRLAGTFDS, the assay gave ND, ND, ND (controls 3 of 9).
For GFTLNSYGIW / NIYSDNRRTFYGDSVK / GRAAGTFDS, the assay gave ND, ND, ND (controls 4 of 9).
For RFTLNSYGIS / VIFSDGRRTFYCDSVK / GRAAGTFDS, the assay gave ND, ND, ND (controls 0 of 9).
For GFTLNSYGIS / VIYPDGRRTFYGDSVK / GRTAGTFDY, the assay gave 3.26, 2.41, 4.41 (mean 3.36; controls 0 of 9).
For GFTLNSYGIS / VIYSDGRRFFYGDLVK / GRSAGTFDS, the assay gave ND, ND, ND (controls 0 of 9).
For GFTLNSYRIS / VIYSDGRRTFYGDSVF / GRAAGTADS, the assay gave ND, ND, ND (controls 0 of 9).
For GSTMNSYGIS / VIYSDGRRTFYGDMVK / GRAAGTFDS, the assay gave 2.23, 3.99, 2.80 (mean 3.01; controls 0 of 9).
For GFTLNYYGIS / VIYSDGRRTFYGMSVK / GRAAGTFDF, the assay gave 2.44, 2.92, 3.70 (mean 3.02; controls 1 of 9).
For GFTLNSYGIS / VIYSDGRRTFYGDDVK / GRACGTFDS, the assay gave ND, 5.48, 6.22 (mean 5.85; controls 7 of 9).
For GFTDNSYGIS / VIYSDGRFTFYGDSVG / GRAAGTFDS, the assay gave ND, ND, ND (controls 0 of 9).
For GNTLNSYNIS / VIYSDGRRTFYGDSVK / GRAAGTFDE, the assay gave ND, ND, ND (controls 0 of 9).
For GFTLNSYGIS / VIYSDGRRTFMGNTVK / GRAAGTFDS, the assay gave 2.85, 2.27, 1.59 (mean 2.24; controls 0 of 9).
For GFTLNAYGIE / VIYSDGRRTFYGDSVK / GRAAGTFVS, the assay gave ND, ND, ND (controls 1 of 9).
For GFTLNSLGIS / VIYSDGRRTFYGYSVK / GRAAGTFPS, the assay gave 4.21, ND, 5.54 (mean 4.87; controls 3 of 9).
For EFTLNSYGIS / VIYSDGRRTFYGDSVK / KRAANTFDS, the assay gave 5.74, 5.52, ND (mean 5.63; controls 1 of 9).
For GFTLHSYGIS / VIYSDGRKTFYKDSVK / GRAAGTFDS, the assay gave 2.03, 1.99, 2.32 (mean 2.11; controls 0 of 9).
For GFTLNSYGPS / VPYSDGRRTFYGDSVY / GRAAGTFDS, the assay gave ND, ND, 4.38 (controls 1 of 9).
For SHTLNSYGIS / VIYSDGRRTFYGDSVN / GRAAGTFDS, the assay gave 2.42, 2.26, 2.40 (mean 2.36; controls 2 of 9).
For GFTLNSYAIS / HIYSDGRRRFYGDSVK / GRAAGTFDS, the assay gave ND, ND, ND (controls 0 of 9).
For GFTLNSYGIS / VIYYDGRSTFYGDEVK / GRAAGTFDS, the assay gave 4.28, ND, ND (controls 2 of 9).
For GFTLNSYAIS / VIYSDGRRTFYGDSVK / ERAAGTFNS, the assay gave 2.34, ND, ND (controls 2 of 9).
For GFTLNSTGIS / VIYSDGRRTFWGDSVK / GRAAGNFDS, the assay gave ND, ND, ND (controls 0 of 9).

In this assay the parent's reference entry averaged 0.65; its copy inside this library read 4.11 (one replicate of three).